Binding of CDR-mutated scFvs to a peptide of the spike HR2 region

Binding partner: SARS-CoV-2 spike HR2 peptide, sequence PDVDLGDISGINAS.

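The parent was found by panning a naive human phage display library on the peptide. Variants in AAYL52 differ from the parent at up to three CDR positions; double and triple changes were sampled at random. AlphaSeq pools MATa yeast showing the antibodies with MATalpha yeast showing the peptide. After mating in shaken culture at 30 °C for 16 h, diploids were selected and their barcode pairs sequenced. Each replicate has its own calibration line, from reference interactions of the BCL2 family. The assay was run in three technical replicates.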

The variants keep the heavy chain, the linker and the frameworks of Ab-95 (scFv order VH, a (GGGGS)3 linker, VL).
VH: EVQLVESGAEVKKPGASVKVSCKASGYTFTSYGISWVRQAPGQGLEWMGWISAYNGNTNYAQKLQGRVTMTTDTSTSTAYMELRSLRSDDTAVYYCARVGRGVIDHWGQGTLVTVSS
VL: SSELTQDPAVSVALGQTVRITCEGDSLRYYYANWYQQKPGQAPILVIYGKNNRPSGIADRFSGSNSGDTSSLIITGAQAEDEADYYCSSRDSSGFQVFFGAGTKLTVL

Substitutions are numbered in sequence along the VL above, starting at 1 (not Kabat). Values are log10 of the apparent Kd in nM; lower means stronger binding. Replicates are averaged; those with no signal do not enter the mean. "nd" means that the variant was in the library but no mating with the target was seen in that replicate; the authors take this as a sign of poor binding, and no number exists. Background: pairings of library AAYL52 with three empty control strains gave a value in 28% of cases (median 3.91, 5th percentile 2.90). Values in that range, when seen in few replicates, are hard to tell from nonspecific mating. Also given: how often the same scFv was detected with the empty control strains, with their mean in brackets.

changes | log10 Kd, replicates | mean, log10 nM | empty controls
D25H+R28M+G49Q | 3.50 nd nd | 3.50 | 1/9 (4.74)
S55K+S89K+S93Q | nd 5.49 2.70 | 4.10 | 4/9 (3.98)
D25T+K50E+F98E | 4.48 3.09 nd | 3.79 | 2/9 (3.45)
S26N+Y31R+R53M | 4.66 nd nd | 4.66 | 3/9 (3.67)
E23L+S92H+G94W | nd nd nd | nd | 0/9
P54H+F95L+F98W | 3.70 nd nd | 3.70 | 1/9 (3.61)
D25K+N33F+R90I | nd nd nd | nd | 1/9 (2.93)
S26V+K50I+D91H | 4.07 4.24 nd | 4.15 | 4/9 (4.31)
R53Y+G94F+F95H | 3.96 nd nd | 3.96 | 4/9 (4.53)
E23C+D25T+S93A | 3.63 3.08 2.70 | 3.14 | 1/9 (4.62)
P54T+S88H | 3.76 3.47 3.00 | 3.41 | 2/9 (3.09)
K50W+N52P | nd nd nd | nd | 3/9 (4.19)
K50Q+N51V+Q96E | nd 3.02 nd | 3.02 | 1/9 (3.60)
L27W+Y30Q+N33D | 4.06 nd nd | 4.06 | 4/9 (4.24)
S89Q+D91E+G94K | nd nd nd | nd | 1/9 (4.60)
G49E+F95S+Q96D | nd nd nd | nd | 2/9 (3.72)
N33E+K50F+G94W | nd 4.69 3.53 | 4.11 | 1/9 (4.37)
Y30Q+K50T+V97F | 1.92 1.58 1.29 | 1.60 | 0/9
E23P+G49I+F98V | 5.13 nd nd | 5.13 | 3/9 (4.23)
D25Y+Y29L+S89E | 3.50 5.21 nd | 4.35 | 1/9 (3.48)
G24H+A32P+N51R | 3.72 3.29 nd | 3.50 | 4/9 (4.01)
S26W+Y29Q+A32H | 4.35 nd nd | 4.35 | 2/9 (3.01)
S26E+Y29M+V97C | 3.50 nd nd | 3.50 | 1/9 (4.33)
R28P+Y29C+F95P | 3.72 nd nd | 3.72 | 3/9 (3.69)
G24Q+S89K+R90K | nd 3.10 nd | 3.10 | 1/9 (3.43)
S88N+S89Y | 2.09 1.95 2.54 | 2.19 | 0/9
Y30A+S55D+G94E | 1.71 1.58 1.36 | 1.55 | 2/9 (4.09)
S92H+Q96R+V97L | 2.05 1.96 1.58 | 1.86 | 5/9 (3.05)
S55H+F95C+F98K | 2.52 2.39 2.46 | 2.46 | 4/9 (4.05)
G49C+S89K+F95C | nd 5.63 nd | 5.63 | 2/9 (3.98)
R28N+R90Y+S93I | nd 5.44 nd | 5.44 | 1/9 (3.65)
N33E+S55C+R90M | nd 4.30 nd | 4.30 | 1/9 (3.60)
N52E+S88K+R90H | nd nd 4.30 | 4.30 | 4/9 (3.58)
A32P+P54I+D91I | 4.49 nd nd | 4.49 | 4/9 (3.88)
A32V+P54H+S92Q | nd 3.28 3.19 | 3.24 | 0/9
D25W+S26C+G49P | 5.00 nd nd | 5.00 | 1/9 (4.69)
Y29T+V97G+F98W | 2.21 1.97 1.86 | 2.02 | 4/9 (4.13)
S88G+V97T+F98G | 2.05 2.80 2.51 | 2.45 | 7/9 (3.85)
S26R | 2.58 2.60 1.97 | 2.38 | 3/9 (3.84)
Y30I+G49A+G94R | 4.29 3.57 nd | 3.93 | 4/9 (4.78)
G49H+N52I+S89G | 4.48 5.15 4.01 | 4.55 | 4/9 (4.63)
N52A+R90P+D91Y | nd nd nd | nd | 3/9 (4.06)

Data: MIT Lincoln Laboratory AlphaSeq set, Engelhart et al. 2022, doi:10.1038/s41597-022-01779-4, as distributed in FLAb.